# The list shows a part of the results, in another mix than the full data. Calls of active or inactive are those of the source. Calls follow the shape of the dose curve; as a rule, active = well fitted curve in either direction with a large enough effect; inconclusive = small, poorly fitted or top-dose-only effect; inactive = flat fitted curve, though single readings scatter.
# Test: Total Fluorescence Counterscreen for Inhibitors of the Interaction of Thyroid Hormone Receptor and Steroid Receptor Coregulator 2
# Details: TRb/SRC2 Texas Red total fluorescence interference
# % is scaled to controls: 0 for no effect and ±100 for the full control effect.
smiles,measurement,setting,value
Cc1cc(C)cc(OP(C)(N)=O)c1 (stereo not drawn),"fluorescence change, negative = quenching",at 106 µM (top of the series),inactive: -1.41%
COc1ccc(OP(C)(=O)Nc2cccc(F)c2)cc1 (stereo not drawn),"fluorescence change, negative = quenching",at 106 µM (top of the series),inactive: -0.999%
COc1ccccc1OP(C)(=O)Nc1cc(Cl)ccc1C (stereo not drawn),"fluorescence change, negative = quenching",at 53 µM (top of the series),inactive: 1.51%
Cc1ccc(NP(C)(=O)Oc2ccccc2)c(C)c1 (stereo not drawn),"fluorescence change, negative = quenching",at 106 µM (top of the series),inactive: 0.24%
COc1ccccc1OP(C)(=O)Nc1ccc(C)cc1 (stereo not drawn),"fluorescence change, negative = quenching",at 106 µM (top of the series),inactive: 0.0863%
CCOC(=O)c1ccc(NP(C)(=O)Oc2ccccc2)cc1 (stereo not drawn),"fluorescence change, negative = quenching",at 106 µM (top of the series),inactive: -0.1%
O=[N+]([O-])c1ccc2c(c1)C=Nc1ccccc1O2,"fluorescence change, negative = quenching",at 106 µM (top of the series),inactive: -1.54%
O=C(O)C(O)(c1ccccc1)c1ccccc1,"fluorescence change, negative = quenching",at 106 µM (top of the series),inactive: -2.13%
Cc1cccc(C)c1OP(C)(N)=O (stereo not drawn),"fluorescence change, negative = quenching",at 106 µM (top of the series),inactive: 2.42%
CC(C)(C)c1ccc(OP(C)(=O)Nc2ccc(SC(F)(F)F)cc2)cc1 (stereo not drawn),"fluorescence change, negative = quenching",at 106 µM (top of the series),inactive: -3.9%
O=[N+]([O-])[O-].[NH4+],"fluorescence change, negative = quenching",at 106 µM (top of the series),inactive: -0.607%
CP(=O)(Nc1ccccn1)Oc1ccc(Cl)cc1 (stereo not drawn),"fluorescence change, negative = quenching",at 106 µM (top of the series),inactive: -0.0029%
CN(C)CCS,"fluorescence change, negative = quenching",at 106 µM (top of the series),inactive: -2.83%
CCOC(=O)c1ccc(NP(C)(=O)Oc2ccc(OC)cc2)cc1 (stereo not drawn),"fluorescence change, negative = quenching",at 106 µM (top of the series),inactive: -0.0827%
CCOP(C)(=S)SCC(=O)NC(C)C(=O)O (stereo not drawn),"fluorescence change, negative = quenching",at 106 µM (top of the series),inactive: 1.18%
Cc1cc(C)cc(OP(C)(=O)Nc2ccc(SC(F)(F)F)cc2)c1 (stereo not drawn),"fluorescence change, negative = quenching",at 106 µM (top of the series),inactive: 0.875%
CCc1ccc(OP(C)(=O)N2CCN(c3ccc([N+](=O)[O-])cc3)CC2)cc1 (stereo not drawn),"fluorescence change, negative = quenching",at 106 µM (top of the series),inactive: -8.01%
CP(=O)(NC(=O)Nc1ccccc1)Oc1ccccc1 (stereo not drawn),"fluorescence change, negative = quenching",at 106 µM (top of the series),inactive: -1.05%
CP(=O)(Oc1ccccc1)OC(c1ccccc1)C(F)(F)F (stereo not drawn),"fluorescence change, negative = quenching",at 106 µM (top of the series),inactive: -1.16%
Cc1cccc(C)c1OP(C)(=O)Nc1ccc(SC(F)(F)F)cc1 (stereo not drawn),"fluorescence change, negative = quenching",at 106 µM (top of the series),inactive: 1.13%
CP(=O)(Nc1ccc(SC(F)(F)F)cc1)Oc1ccc(Cl)cc1 (stereo not drawn),"fluorescence change, negative = quenching",at 106 µM (top of the series),inactive: -0.436%
CP(=O)(Nc1ccccc1Br)Oc1ccccc1 (stereo not drawn),"fluorescence change, negative = quenching",at 106 µM (top of the series),inactive: 2.39%
COc1ccccc1OP(C)(=O)Nc1ccccc1 (stereo not drawn),"fluorescence change, negative = quenching",at 106 µM (top of the series),inactive: -5.74%
CP(=S)(Nn1cnnc1)Oc1ccccc1 (stereo not drawn),"fluorescence change, negative = quenching",at 106 µM (top of the series),inactive: 0.151%
CP(=O)(Nc1ccc(SC(F)(F)F)cc1)Oc1ccccc1 (stereo not drawn),"fluorescence change, negative = quenching",at 106 µM (top of the series),inactive: -2.67%
CCCOc1ccc(NP(C)(=O)Oc2ccc(Cl)cc2)cc1 (stereo not drawn),"fluorescence change, negative = quenching",at 106 µM (top of the series),inactive: 0.435%
COc1ccccc1OP(C)(=O)Nc1c(C)cccc1C (stereo not drawn),"fluorescence change, negative = quenching",at 106 µM (top of the series),inactive: -3.64%
CN1CCCCC1COC(=O)C1(O)c2ccccc2CCc2ccccc21 (stereo not drawn),"fluorescence change, negative = quenching",at 106 µM (top of the series),inactive: -0.467%
O=[N+]([O-])c1cc([N+](=O)[O-])c(Nc2nnnn2CCO)c([N+](=O)[O-])c1,"fluorescence change, negative = quenching",at 106 µM (top of the series),inactive: -2.25%
Cc1nc2ccc3ccccc3c2s1.O=[N+]([O-])c1cc([N+](=O)[O-])c(O)c([N+](=O)[O-])c1,"fluorescence change, negative = quenching",at 106 µM (top of the series),inactive: -1.32%
CC(C)N(CCCl)C(C)C,"fluorescence change, negative = quenching",at 106 µM (top of the series),inactive: -0.454%
O=[N+]([O-])c1cc([N+](=O)[O-])c(-n2nnc3ccccc32)c([N+](=O)[O-])c1,"fluorescence change, negative = quenching",at 106 µM (top of the series),inactive: -1.32%
Cc1ccc(C)c(NP(C)(=O)Oc2ccccc2)c1 (stereo not drawn),"fluorescence change, negative = quenching",at 106 µM (top of the series),inactive: 2.82%
CP(=O)(Nc1cccc(Br)c1)Oc1ccccc1 (stereo not drawn),"fluorescence change, negative = quenching",at 106 µM (top of the series),inactive: 0.456%
Cc1cc(C)cc(OP(C)(=O)Nc2ccccn2)c1 (stereo not drawn),"fluorescence change, negative = quenching",at 106 µM (top of the series),inactive: 1.67%
CCOC(=O)c1ccc(NP(C)(=O)Oc2cc(C)cc(C)c2)cc1 (stereo not drawn),"fluorescence change, negative = quenching",at 106 µM (top of the series),inactive: -1.19%
Cc1cc(C)cc(OP(C)(=O)Nc2ccc(C)cc2C)c1 (stereo not drawn),"fluorescence change, negative = quenching",at 106 µM (top of the series),inactive: -5.02%
COc1ccccc1OP(C)(=O)Nc1cccc(Br)c1 (stereo not drawn),"fluorescence change, negative = quenching",at 106 µM (top of the series),inactive: 1.16%
CC1=NCCc2c1[nH]c1ccccc21.O=[N+]([O-])c1cc([N+](=O)[O-])c(O)c([N+](=O)[O-])c1,"fluorescence change, negative = quenching",at 106 µM (top of the series),inactive: 0.739%
Cc1ccc([N+](=O)[O-])cc1[N+](=O)[O-],"fluorescence change, negative = quenching",at 106 µM (top of the series),inactive: -3.8%
same,"fluorescence change, negative = quenching",at 201 µM (top of the series),inactive: -4.44%
O=[N+]([O-])OCC(CO[N+](=O)[O-])(CO[N+](=O)[O-])CO[N+](=O)[O-],"fluorescence change, negative = quenching",at 106 µM (top of the series),inactive: -1.16%
CCOP(=S)(CC)Oc1cc(Cl)c(Cl)cc1Cl (stereo not drawn),"fluorescence change, negative = quenching",at 201 µM (top of the series),inactive: 1.4%
O=[N+]([O-])c1cccc([N+](=O)[O-])c1,"fluorescence change, negative = quenching",at 106 µM (top of the series),inactive: -1.26%
same,"fluorescence change, negative = quenching",at 201 µM (top of the series),inactive: -2.11%
CP(=O)(Nc1ccccc1)Oc1ccc(F)cc1 (stereo not drawn),"fluorescence change, negative = quenching",at 106 µM (top of the series),inactive: 0.784%
CCCCCOc1ccc(NP(C)(=O)Oc2ccc(Cl)cc2Cl)cc1 (stereo not drawn),"fluorescence change, negative = quenching",at 106 µM (top of the series),inactive: -2.08%
CCN(CC)CCCOC(=O)C(O)(c1ccccc1)C1CCCCC1 (stereo not drawn),"fluorescence change, negative = quenching",at 106 µM (top of the series),inactive: 1.92%

# Source: PubChem BioAssay AID1479 (National Center for Advancing Translational Sciences (NCATS), 2009)
